# Screening data: PubChem BioAssay, National Center for Advancing Translational Sciences (NCATS)
# TDP1 block = inhibitors of human tyrosyl-DNA phosphodiesterase TDP1. recombinant TDP1, AlphaScreen DNA substrate cleavage. Q9NUW8. Potency, µM (highest dose often 130 µM), for inactives: at the highest dose activity change, negative = inhibition, most hits filed as inhibitors. 350,000 tested, 0.28% active; note: potency is the fitted concentration of half-maximal effect; % is set by controls: 0 for no effect and ±100 for the full control effect; nearly all actives have a fitted effect of over 40% in size
#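 AlphaScreen read-out: signal falls as enzyme removes the 3' tyrosine-FITC from a 5'-biotinylated DNA oligo (15 nM, 5 min, RT). Enzyme was E. coli-made recombinant Tdp1 at 1 nM, exposed to compound for 15 min beforehand; beads 10 ug/ml, 10 min.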
# TDP1 cell CPT = DT40-hTDP1 cell growth loss with CPT; chicken DT40 Tdp1-/-;hTDP1 cells + 20 nM CPT, ATP luminescence, 48 h; Potency, µM (titrated, usually from 46.2 µM), without a hit: at the top dose activity change, negative = growth inhibition, actives largely listed as inhibitors; 420,000 tested, 12% active; AID 686979; note: potency is the fitted concentration of half-maximal effect; % is set by controls: 0 for no effect and ±100 for the full control effect; nearly all actives have a fitted effect of over 55% in size
#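 Chicken DT40 Tdp1-/- cells stably complemented with human TDP1 were seeded at 400 cells/well in medium containing 20 nM camptothecin, exposed to pin-transferred compounds, and grown at 37 °C for at least 48 hr. Viability was read as ATP luminescence.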
# DT40 TDP1 no CPT = qHTS for Inhibitors of human tyrosyl-DNA phosphodiesterase 1 (TDP1): qHTS in cells in absence of CPT. DT40 Tdp1-/- hTDP1 cells, no CPT, ATP luminescence, 48 h. Potency, µM (top dose mostly 46.2 µM), for inactives: at the top dose activity change, negative = growth inhibition, hits mostly inhibitors. 420,000 tested, 15% active. AID 686978, 2013; note: potency is the fitted concentration of half-maximal effect; % is set by controls: 0 for no effect and ±100 for the full control effect; nearly all actives have a fitted effect of over 55% in size
#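 No-CPT arm: Tdp1-/-;hTDP1 DT40 cells (400/well) plus compounds, incubated ≥48 hr at 37 °C. Readout CellTiter-Glo luminescence.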
# miR-21 FLuc = raises the signal of a miR-21 reporter | HeLa miR-21 FLuc reporter, luciferase, 48 h | Potency, µM (doses to about 38.3 µM), without a hit: at the top dose reporter change, positive = more light | 340,000 tested, under 10 active | AID 2288; active = well fitted rising curve with a large enough effect; inconclusive = small, poorly fitted or top-dose-only effect; inactive = no such curve, though single readings can be large or run the other way;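 note: % of control where 0% means no effect; miR-21 action dims this reporter so a rising signal means less miR-21 action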
#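 HeLa cells stably expressing CMV-driven firefly luciferase with a downstream miR-21 binding sequence, endogenously expressing miR-21, were treated with titrations (up to about 40uM final) for 48 hours at 37 degree Celsius. Luciferase luminescence was read after lysis.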
# uPA generation = inhibitors of cell surface uPA generation | cell surface uPA generation assay, qHTS | Potency, µM (titrated, usually from 38.3 µM), without a hit: at the top dose activity change, negative = inhibition, most hits filed as inhibitors | 330,000 tested, 0.31% active; active = well fitted inhibition curve with a large enough effect; inconclusive = small, poorly fitted or top-dose-only effect; inactive = no such curve, though single readings can be large or run the other way; tested in mouse RAW 264.7 cells; note: potency is the fitted concentration of half-maximal effect; % is set by controls: 0 for no effect and ±100 for the full control effect; nearly all actives have a fitted effect of over 55% in size
# Starred values were filed as active, the others as inactive; ? = inconclusive; / = no result. This is a sample that favours compounds with a hit; in the whole collection about 16% have one here. Unless noted, calls come from the whole dose curve; as a rule, active = well fitted curve in the direction sought with a large enough effect; inconclusive = small, poorly fitted or top-dose-only effect, or another doubt; inactive = no such curve, though single readings can be large; an effect the other way counts as inactive or inconclusive.
# The line under a structure holds: TDP1 block, uPA generation, miR-21 FLuc, DT40 TDP1 no CPT, TDP1 cell CPT
N=c1n(CC(=O)c2ccc([N+](=O)[O-])cc2)c2ccccc2n1Cc1ccc(Cl)cc1
→ 1.9%, -0.3%, -5.9%, 5.17µM*, 2.91µM*
CCOc1ccc(Cc2c(Cl)nc(SC)nc2N(C)C)cc1
→ -8.1%, -12.1%, 23.9%, 16.4µM*, 18.4µM*
CSc1nc(Cl)c(Cc2ccc(OC(C)C)cc2)c(N(C)C)n1
→ -3.2%, -0.2%, 1.9%, 16.4µM*, ?
COc1ccc(Cc2c(Cl)ncnc2Cl)cc1
→ -8.1%, -8.4%, 11.4%, ?, -14.9%
COc1ccc(Cc2c(C)nc(N)nc2Cl)cc1
→ 2.8%, -3.7%, -16.7%, -8.0%, ?
c1ccc(Cn2nnnc2C(c2cccs2)N2CCc3ccccc3C2)cc1 (stereo not given)
→ 0.5%, -17.4%, 12.7%, 29.1µM*, ?
CC(C)C(c1nnnn1Cc1ccccc1)N1CCc2ccccc2C1 (stereo not given)
→ 6.7%, 1.4%, 0.3%, 16.4µM*, ?
COc1ccc(Br)cc1CN(C)C(C)C(=O)Nc1cccc(C(C)=O)c1 (stereo not given)
→ 1.3%, -1.6%, 11.2%, ?, ?
O=C(c1[nH]c(C(F)(F)F)nc1-c1ccccc1)N1CCc2ccccc2C1
→ /, /, /, -22.1%, 0.8%
COc1cccc(N2CC(O)Cn3c2nc2c3c(=O)n(CCCc3ccccc3)c(=O)n2C)c1 (stereo not given)
→ 1.0%, 9.0%, 19.5%, 16.4µM*, 11.6µM*
Cc1cccc(NC(=O)c2ccc([N+](=O)[O-])o2)c1C
→ 0.0%, -11.9%, 25.8%, ?, ?
O=C(Nc1cccc2ccccc12)c1ccc([N+](=O)[O-])o1
→ /, ?, ?, 25.9µM*, 14.6µM*
COc1ccccc1NC(=O)c1ccc([N+](=O)[O-])o1
→ /, 10µM*, /, 16.4µM*, 13µM*
O=C(CN1CCN(Cc2ccc(Cl)cc2)CC1)N/N=C/c1c[nH]c2ccccc12
→ 7.7%, -1.0%, -2.2%, -12.7%, -3.9%
Cc1nn(Cc2ccc(Cl)c(Cl)c2)c(C)c1NC(=O)c1sc2ccccc2c1Cl
→ 3.2%, 2.3%, -0.1%, 14.6µM*, ?
Cc1nn(Cc2ccc(Cl)cc2Cl)c(C)c1NC(=O)c1sc2ccccc2c1Cl
→ 3.8%, -1.1%, -2.1%, -27.9%, -25.6%
Cc1nn(Cc2c(Cl)cccc2Cl)c(C)c1NC(=O)c1sc2ccccc2c1Cl
→ -1.4%, 9.5%, -7.7%, 16.4µM*, 18.4µM*
Cc1ccccc1Cn1nc(C)c(NC(=O)c2sc3ccccc3c2Cl)c1C
→ 2.9%, -4.2%, 18.7%, 20.6µM*, ?
COc1ccc(-n2c(-c3ccccc3)cc3c2CCCC3=O)cc1
→ -3.8%, -12.8%, 18.2%, ?, -28.0%
O=C(c1cc2ccccc2o1)N1CCN(CCOc2ccccc2)CC1
→ 11.1%, 6.2%, /, ?, ?
O=C(Nc1ccc2ccccc2c1)N1CCCN(CCOc2ccccc2)CC1
→ 1.3%, ?, ?, 4.11µM*, 4.61µM*
Cc1ccc(-c2cc(-c3ccccc3)c(C#N)c(Br)n2)cc1
→ -2.8%, 1.1%, -8.3%, ?, -8.6%
CS(=O)(=O)c1nc(-c2ccccc2)cc(-c2ccccc2)c1C#N
→ -1.5%, -6.1%, ?, 2.91µM*, 1.46µM*
CCOc1ccccc1C(=O)Nc1ccc(S(=O)(=O)N2CCN(C)CC2)cc1
→ 0.4%, 13.2%, -3.7%, -15.5%, ?
CCOc1ccccc1C(=O)Nc1ccc(-n2nncc2-c2ccccc2)cc1
→ 5.2%, /, -0.2%, 23.1µM*, ?
CCOc1ccccc1C(=O)Nc1ccc(-n2nncc2C(C)(C)C)cc1
→ 3.8%, 7.3%, -2.1%, 14.6µM*, 20.6µM*
COc1ccc(CCNC(=O)CCn2c(=O)c3ccccc3n(Cc3c(C)cc(C)cc3C)c2=O)cc1OC
→ -1.8%, /, 0.1%, -0.7%, -0.6%
CC(=O)Nc1ccc(NC(=O)C2CCN(S(=O)(=O)c3ccc4c(c3)CCCC(=O)N4)CC2)cc1
→ 5.3%, /, -0.7%, /, /
CCOc1ccc(-n2ccn3c(CC(C)CC(=O)O)nnc3c2=O)cc1 (stereo not given)
→ 0.9%, /, -2.4%, 8.1%, -1.1%
Cc1ccc(OCCSc2nc3ncnc(N)c3[nH]2)cc1
→ 8.8%, -7.0%, -35.6%, ?, 8.2µM*

# The list goes on, starting with the last 2 of the part before.
# The line under a structure holds: TDP1 block, uPA generation, miR-21 FLuc, DT40 TDP1 no CPT, TDP1 cell CPT
CCOc1ccc(-n2ccn3c(CC(C)CC(=O)O)nnc3c2=O)cc1 (stereo not given)
→ 0.9%, /, -2.4%, 8.1%, -1.1%
Cc1ccc(OCCSc2nc3ncnc(N)c3[nH]2)cc1
→ 8.8%, -7.0%, -35.6%, ?, 8.2µM*
CCS(=O)(=O)NCCCc1ccccc1
→ 8.7%, -0.4%, 1.7%, ?, 20.6µM*
C=CCNC(=S)NNC(=O)COc1ccc2cc(Br)ccc2c1
→ 5.1%, /, -67.3%, 8.2µM*, ?
C=CCNC(=S)NNC(=O)COc1ccc(Br)cc1
→ 2.6%, 10.9%, -12.1%, -2.1%, 1.6%
COc1cccc(Nc2ncc3ncc(=O)n(CCc4ccccc4)c3n2)c1
→ /, /, /, -15.2%, -15.1%
Cc1csc2c(N3CCN(C(=O)Nc4ccc(OC(F)(F)F)cc4)CC3)ncnc12
→ 1.3%, 5.4%, -8.5%, 18.4µM*, 10.3µM*
Cc1csc2c(N3CCC(C(=O)O)CC3)ncnc12
→ -1.4%, 13.0%, -24.6%, -5.4%, -5.3%
CSC[C@H]1CN(Cc2cccnc2)C(=O)[C@@H]1CC(=O)Nc1ccc(Br)cc1
→ /, /, /, ?, -29.3%
CN(C)S(=O)(=O)c1cccc(NC(=S)N2CCc3ccccc32)c1
→ 8.0%, -15.2%, 0.1%, ?, ?
CCc1nn(CC(=O)NC(C)c2ccccc2)c(=O)c2cc3sccc3n12 (stereo not given)
→ 2.9%, /, -3.4%, -19.4%, -8.0%
COc1cc(Nc2ccc(S(N)(=O)=O)cc2)c([N+](=O)[O-])nc1[N+](=O)[O-]
→ /, -6.4%, 2.8%, ?, 16.4µM*
COc1ccc(C(=O)Nc2ccc(-c3nc4ncccc4o3)cc2C)cc1Br
→ 1.1%, /, -2.7%, ?, 10.3µM*
O=C(Nc1cc(-c2nc3ncccc3o2)ccc1Cl)c1cccs1
→ 3.5%, -1.3%, 4.2%, 20.6µM*, ?
COc1ccc(-c2nc3ncccc3o2)cc1NC(=O)c1cccs1
→ 11.5%, -1.1%, -0.5%, 14.6µM*, -19.6%
O=C(COC(=O)CC1c2ccccc2CCN1S(=O)(=O)c1ccc(F)cc1)Nc1ccccc1 (stereo not given)
→ 1.1%, -2.2%, -5.8%, ?, ?
CCc1cccc(CC)c1NC(=O)COC(=O)CC1c2ccccc2CCN1S(=O)(=O)c1ccc(F)cc1 (stereo not given)
→ 3.5%, 4.7%, 7.8%, 23.1µM*, ?
O=C(O)/C=C/c1cn(-c2ccccc2)nc1-c1cc2ccccc2o1
→ 2.7%, 3.0%, -30.5%, ?, -16.4%
CCOC(=O)c1c(-c2ccc(OC)cc2)oc2c1C(OC(C)=O)CCC2 (stereo not given)
→ /, /, /, 20.6µM*, ?
O=C(OCc1ccccc1)c1c(-c2ccccc2)oc2c1C(OCCO)CCC2 (stereo not given)
→ /, /, /, 16.4µM*, ?

# Compound profiles, from the list above.
# `CCc1nn(CC(=O)NC(C)c2ccccc2)c(=O)c2cc3sccc3n12` (stereo not given) as listed: TDP1 block: 2.9%; uPA generation: /; miR-21 FLuc: -3.4%; DT40 TDP1 no CPT: -19.4%; TDP1 cell CPT: -8.0%
# `CCOC(=O)c1c(-c2ccc(OC)cc2)oc2c1C(OC(C)=O)CCC2` (stereo not given) as listed: TDP1 block: /; uPA generation: /; miR-21 FLuc: /; DT40 TDP1 no CPT: 20.6µM*; TDP1 cell CPT: ?
